Tn7 DDE FP – inhibitors of Tn7 peptide binding to fibrin DD(E), primary screen, biochemical, fluorescence polarization, human fibrin, Tn7 probe; Fibrinogen beta chain (Homo sapiens), P02675; FP displacement of FITC-Tn7 peptide from fibrin DD(E); 0% = median of compound wells per plate; inhibition, % at 8.3 µM; hit rate 0.13% among 370,000; AID 720508, 2013;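 active = inhibition above the mean of compounds falling within the control limits plus 3 SD of them, cut at about 14% in these data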;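 also: 0% = plate median of compound wells and 100% = 10 µM Aha-Tn7 peptide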
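Assay system: human fibrin DD(E) protein / Input: 2 µM fibrin DD(E) / Benchmarks: high control of 10 µM Aha-Tn7 peptide / Measured by: fluorescence polarization of the labelled Tn7 tracer / Medium: Tris buffer with calcium and detergent, pH 7.8 / Timing: 10 min compound pre-incubation, 3 h probe incubation at room temperature / Repeats: one replicate per compound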
Yeast UUG start-1 – modulators of start codon recognition fidelity in yeast; AID 602363; activity score, % at 18.7 µM; S. cerevisiae UUG-firefly luciferase reporter, luminescence/redox ratio; 0.13% of 350,000 active;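 active = replicate mean at a twofold rise or more, about +100% in these data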;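 note: firefly luciferase made from a UUG start codon reports start codon fidelity; reporter light over untreated wells divided by growth signal over untreated wells; some hits fall short of that in this replicate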
PglD inh – C. jejuni PglD acetyltransferase inhibitors, primary screen, biochemical, DTNB colorimetric, single point; hit rate 0.098% among 360,000; inhibition, % at 12.5 µM; purified PglD enzyme, DTNB colorimetric CoA detection; in the data active = inhibition above about 16%, passing the limit was not always enough
Tn6 DDE FP – inhibitors of Tn6 peptide binding to fibrin DD(E), primary screen, biochemical, fluorescence polarization, human fibrin, Tn6 probe | hit rate 0.21% among 370,000 | Fibrinogen beta chain (Homo sapiens), P02675 | Fibrin DD(E) TRITC-Tn6 fluorescence polarization displacement | inhibition, % at 8.3 µM;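 active = inhibition above a per-campaign cutoff: mean of compounds within control limits plus 3 SD, cut at about 15% in these data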;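 also: 0% = median of all compound wells on the plate and 100% = blocking peptide control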
Yeast UUG start-2 – enhancers of UUG start codon usage in yeast, dose response, S. cerevisiae, UUG firefly luciferase, cherry-pick, set 2; 540 tested, under 10 active; shares compounds with Yeast UUG start-1; luminescence, 4 h; 100% means double the DMSO signal; activation, % at 38 µM;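 active = signal increase whose fitted curve reaches an absolute level of 40 at a concentration under 10 µM; inactive = activity opposite to the expected increase, or the rest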
* marks the source's active call; other numbers are inactive results; i = inactive; . = no result; ! = repeats disagree. Rows were chosen to be rich in hits. Some 0.45% of all compounds tested hit in one or more screens of this group.

| Molecule | Tn7 DDE FP | Yeast UUG start-1 | PglD inh | Tn6 DDE FP | Yeast UUG start-2 |
| --- | --- | --- | --- | --- | --- |
| COC(=O)c1c2oc(c1C(=O)OC)C(=O)N[C@H](Cc1ccccc1)Cn1cc(nn1)CNC(=O)[C@H](Cc1ccccc1)NC(=O)N[C@@H](CO)CC2 | . | 216* | 0 | . | i |
| COC(=O)C1=C2CC[C@H](CO)NC(=O)N[C@H](Cc3ccccc3)C(=O)NCc3cn(nn3)C[C@@H](Cc3ccccc3)NC(=O)c3oc(c(C(=O)OC)c3C(=O)OC)CC[C@H](CO)NC(=O)N[C@H](Cc3ccccc3)C(=O)NCc3cn(nn3)C[C@@H](Cc3ccccc3)NC(=O)C(=C1C(=O)OC)O2 | . | 63 | 8 | . | . |
| COC(=O)c1c2oc(c1C(=O)OC)C(=O)N[C@@H](Cc1ccccc1)Cn1cc(nn1)CNC(=O)[C@H](Cc1ccccc1)NC(=O)N[C@@H](CO)CC2 | . | 113* | 0 | . | i |
| O=C(Cc1ccncc1)NCC[C@@H]1CC[C@H](NC(=O)C2CCCCC2)[C@H](CO)O1 | . | 54 | 1 | . | . |
| CCCc1cc(C(=O)N/N=C/c2ccc(CC)s2)c2ccccc2n1 | 2 | 413* | -5 | -1 | 0 |
| NC(=O)CSc1nnc(-c2ccncc2)n1CCc1ccccc1 | -1 | 173* | 0 | 3 | -2 |
| CCN(CC)S(=O)(=O)c1cccc(-c2nnc(SCC(N)=O)n2CCc2ccccc2)c1 | -6 | -10 | -2 | -10 | . |
| C[C@H](CO)N1C[C@H](C)[C@H](CN(C)S(=O)(=O)c2cccs2)OCCCC[C@H](C)Oc2ccc(NC(=O)NC3CCCCC3)cc2C1=O | . | -4 | 1 | . | . |
| Cc1c(P(=O)(c2ccccc2)c2ccccc2)c2ccccc2n1C | -1 | 173* | 4 | 2 | 2 |
| Cc1c(C(C)(C(=O)O)c2c(C)n(C)c3ccccc23)c2ccccc2n1C | 0 | . | . | 0 | . |
| CCCCN(C(=O)NC(=O)Nc1ccccc1OCC)S(C)(=O)=O | 1 | -11 | 1 | 4 | . |
| CCOc1ccccc1NC(=O)NC(=O)N(C)S(C)(=O)=O | -3 | 436* | -3 | 1 | -6 |
| C[C@@H]1CN([C@H](C)CO)C(=O)Cc2cc(NC(=O)NC3CCCCC3)ccc2O[C@H]1CN(C)Cc1ccc(C(F)(F)F)cc1 | . | 0 | 0 | . | . |
| O=C(Cn1cc(COc2ccccc2C(F)(F)F)nn1)c1ccc(O)cc1 | -2 | 141* | -1 | 0 | 4 |
| COc1cc(C(C)=O)ccc1OCc1cn(CC(=O)c2ccc(O)cc2)nn1 | -5 | 157* | -1 | 2 | -1 |
| CC(=O)Nc1ccc(OCc2cn(CC(=O)c3ccc(O)cc3)nn2)cc1 | 5 | 96* | -1 | 1 | -7 |
| CC(=O)c1ccc(OCc2cn(CC(=O)c3ccc(O)cc3)nn2)c(C)c1 | 5 | 60 | 2 | 6 | . |
| C[C@H](CO)N1C[C@H](C)[C@@H](CN(C)C(=O)Nc2ccc3c(c2)OCO3)Oc2ccc(NC(=O)Nc3cccc4ccccc34)cc2CC1=O | . | -9 | 8 | . | . |
| CCCN(CC(=O)Nc1ccccc1C)C(=O)Cc1cccs1 | 0 | -16 | 1 | 4 | . |
| CCCN(CC(=O)Nc1ccccc1C)C(=O)/C=C/c1cccs1 | 2 | active | 8 | 7 | -4 |
| Cc1noc(C)c1S(=O)(=O)Nc1ccc2c(c1)CC(=O)N([C@@H](C)CO)C[C@@H](C)[C@H](CN(C)S(=O)(=O)c1cn(C)cn1)O2 | . | 13 | 2 | . | . |
| CCOc1ccccc1Nc1nc2ccccc2[nH]1 | -2 | 581* | -4 | 4 | -2 |
| CNC[C@H]1Oc2cc(C#CC3CCCCC3)ccc2S(=O)(=O)N([C@H](C)CO)C[C@@H]1C | . | 161* | -1 | . | i |
| C[C@H](CO)N1C[C@H](C)[C@@H](CN(C)C(=O)c2cnccn2)Oc2cc(C#CCC3CCCC3)ccc2S1(=O)=O | 10 | 121*! | -3 | 6 | -7 |
| C[C@H]1CN([C@@H](C)CO)S(=O)(=O)c2ccc(C#CCC3CCCC3)cc2O[C@@H]1CN(C)C(=O)CN(C)C | . | 32 | -3 | . | . |
| C[C@@H]1CN([C@@H](C)CO)S(=O)(=O)c2ccc(C#CCC3CCCC3)cc2O[C@@H]1CN(C)Cc1ccc(C(=O)O)cc1 | . | 6 | -2 | . | . |

Entries of single compounds as entered above.
`C[C@H](CO)N1C[C@H](C)[C@@H](CN(C)C(=O)Nc2ccc3c(c2)OCO3)Oc2ccc(NC(=O)Nc3cccc4ccccc34)cc2CC1=O` across the screens: Tn7 DDE FP: .; Yeast UUG start-1: -9; PglD inh: 8; Tn6 DDE FP: .; Yeast UUG start-2: .
`CCCCN(C(=O)NC(=O)Nc1ccccc1OCC)S(C)(=O)=O` across the screens: Tn7 DDE FP: 1; Yeast UUG start-1: -11; PglD inh: 1; Tn6 DDE FP: 4; Yeast UUG start-2: .
